Experimental findings from PubChem BioAssay AID1224817 (Yan Lab, Georgia Cancer Center, Augusta University, 2016) are described below.

The structures appear in SMILES notation. Only a part is listed here, and it is no random draw. The source made the active and inactive calls.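 How the source made its calls: active means log2 luciferase ratio at or below -0.5849, meaning signal at two thirds of solvent-only control or lower; inactive means the rest.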

The experiment in a line: eIF4E expression suppression, luciferase knock-in reporter – cell-based, HT1080, primary screen (AID 1224817).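 Further: luciferase reports endogenous eIF4E expression since it is co-expressed from the native EIF4E locus.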 The note with it: HT1080 EIF4E-luc2 knock-in reporter, 16 h, at 2.5 µM, stronger effect = lower value.
Consider `NC1CCCCC1.NP(=O)(O)N(CCCl)CCCl`, for which the log2 luciferase activity ratio is inactive: -0.0196.
